## AlphaSeq binding of Ab-95 light chain variants to a spike HR2 peptide

Source: Engelhart et al. 2022 (doi:10.1038/s41597-022-01779-4), MIT Lincoln Laboratory and A-Alpha Bio; data file from the FLAb repository.

All variants were tested on one target, the spike HR2 peptide PDVDLGDISGINAS (SARS-CoV-2).

Parent scFv Ab-95: VH joined to VL by the linker GGGGSGGGGSGGGGS. Changes lie in the light chain CDRs alone.
VH: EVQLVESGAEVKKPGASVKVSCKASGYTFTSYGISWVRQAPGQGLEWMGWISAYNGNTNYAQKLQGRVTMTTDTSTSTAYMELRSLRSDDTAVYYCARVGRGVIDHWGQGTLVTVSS
VL: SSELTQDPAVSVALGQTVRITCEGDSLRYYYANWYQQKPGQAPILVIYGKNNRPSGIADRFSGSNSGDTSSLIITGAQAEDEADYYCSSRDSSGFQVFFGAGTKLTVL

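The parent was found by panning a naive human phage display library on the peptide. The library (AAYL52) carries one to three amino acid substitutions per variant, with no insertions or deletions. AlphaSeq pools MATa yeast showing the antibodies with MATalpha yeast showing the peptide. Pairs that bind mate more often; barcode pairs of the diploids are counted by sequencing. Scores were corrected for input abundance and mapped to Kd with protein pairs of known affinity run in the same pool. There are three technical replicates.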

Each variant is given by its three light chain CDRs, as the data file delimits them; those of the parent are EGDSLRYYYAN, GKNNRPS, SSRDSSGFQVF.
All variants listed here change S89 of the VL, counted from its first residue.
The Kd shown is the geometric mean over detected replicates; a lower Kd is a better binder.
"no signal" marks a missing value. The strain was present, yet no cells mated with the target were sequenced in any replicate, which points to weak or no binding.
Nonspecific signal, from three strains lacking the peptide, appeared in 28% of pairings of library AAYL52, centred on 8.2 µM (5% of these signals below 800 nM); values are not corrected for it.

For EGDSLRYVYAN | GKNNRPS | SQRDSSGPQVF, the assay gave 56 nM (3 of 3 replicates).
For EGDSLRYYYAN | GDNNRPS | SNRDSSGFQVF, the assay gave 660 nM (3 of 3 replicates).
For EGDSLRYQYAN | GKNNRPS | SNRDSSGHQVF, the assay gave 420 nM (1 of 3 replicates).
For EGDSLRYYYAN | GKNNRPS | SIRDWSGFQVF, the assay gave 6.7 µM (2 of 3 replicates).
For EGDSLRYYYAN | GKNWRPS | SARDSSGFQVF, the assay gave 170 nM (3 of 3 replicates).
For EGDSLRYYYAN | GKNNRPS | SIRVSSGFPVF, the assay gave 240 nM (3 of 3 replicates).
For EGDSLRYYYAN | GKNNRPS | SGRDSSGFQVF, the assay gave 140 nM (3 of 3 replicates).
For EGDSLRYYYAN | LKNNRPS | SKRDSSGFQKF, the assay gave no signal (0 of 3 replicates).
For EGDSLRYYYAN | GKNNRPS | PERDSSGFQVF, the assay gave 11 µM (2 of 3 replicates).
For EGDSLRYYYAC | GKNNRPS | SRRDSLGFQVF, the assay gave 12 µM (1 of 3 replicates).
For EGDNLRYYYAN | GKANRPS | SRRDSSGFQVF, the assay gave 26 µM (1 of 3 replicates).
For EGDSLRDYYAN | GNNNRPS | STRDSSGFQVF, the assay gave 50 nM (3 of 3 replicates).
For EGDSNRYYYAN | GKNNRPK | STRDSSGFQVF, the assay gave 110 nM (3 of 3 replicates).
For EGDSLRYYWAN | MKNNRPS | SARDSSGFQVF, the assay gave 2.6 µM (2 of 3 replicates).
For EGDSLRYYYAN | MKNNRPS | SNRDSSGFQVF, the assay gave 10 µM (3 of 3 replicates).
For EGDSLQYYYAN | GKNNRIS | SDRDSSGFQVF, the assay gave 25 µM (1 of 3 replicates).
For EGESLRYYYMN | GKNNRPS | SMRDSSGFQVF, the assay gave 8.8 µM (2 of 3 replicates).
For EGDSLRYYYAN | GKNNRPS | SMRDMSPFQVF, the assay gave 3.0 µM (3 of 3 replicates).
For SGDSKRYYYAN | GKNNRPS | SMRDSSGFQVF, the assay gave 8.5 µM (2 of 3 replicates).
For EGDSLRYYYAN | GKNNRPS | SRRDSSGFQLF, the assay gave 1.5 µM (1 of 3 replicates).
For EGDSLRYYYGN | FKNNRPS | SRRDSSGFQVF, the assay gave no signal (0 of 3 replicates).
For EGDSLRYYYAN | GKNIRPS | SFKDSSGFQVF, the assay gave 8.8 µM (3 of 3 replicates).
For EGDSLRYYMAC | GKNNRPS | SDRDSSGFQVF, the assay gave 7.8 µM (1 of 3 replicates).
For EGDSLRHQYAN | GKNNRPS | SYRDSSGFQVF, the assay gave 140 nM (3 of 3 replicates).
For EGRSLRYYYAN | GKNNRMS | SPRDSSGFQVF, the assay gave no signal (0 of 3 replicates).
For EGDSLRYHYAN | GKNNGPS | STRDSSGFQVF, the assay gave 950 nM (3 of 3 replicates).
For EGDSLRYYYAN | GKNNRSS | SHRDSSGFQHF, the assay gave 860 nM (3 of 3 replicates).
For EGDSLRYYYAN | GKNNRPW | SYRDSYGFQVF, the assay gave 180 nM (2 of 3 replicates).
For EGESLRYYYAN | GKNNRPS | SMRDSSGFEVF, the assay gave 380 nM (3 of 3 replicates).
For EPDSLRYYYAN | GKNNRYS | SARDSSGFQVF, the assay gave 6.6 µM (3 of 3 replicates).
For EGDSLRYYYAN | GKNNRPS | SRRSSSGFQVG, the assay gave 5.8 µM (1 of 3 replicates).
For EGDSLRYYYAN | GKNNRPS | IIRDYSGFQVF, the assay gave 3.4 µM (3 of 3 replicates).
For EGDSLRYYYAN | RKNNRPS | SHRDSSGFQVF, the assay gave 4.5 µM (3 of 3 replicates).
For EGDSLRYYYAN | GKNNRPI | SLRDSSGMQVF, the assay gave 3.3 µM (2 of 3 replicates).
For EGDSLCYYWAN | GKNNRPS | SARDSSGFQVF, the assay gave 360 nM (3 of 3 replicates).
For EGDSLDYYYAN | GKNNRPS | SQRDSSGFQVF, the assay gave 480 nM (3 of 3 replicates).
For EGDNLRYYYAN | GKNNRPS | SVRDSSGFQVF, the assay gave 3.4 µM (3 of 3 replicates).
For EGDSQRYYYAN | GKNNRPS | SPRDSSGDQVF, the assay gave 220 nM (3 of 3 replicates).

From the list, the first 3 with no signal in any replicate:

{"CDR-L1": "EGDSLRYYYAN", "CDR-L2": "LKNNRPS", "CDR-L3": "SKRDSSGFQKF", "Kd": "no signal", "replicates with signal": "0 of 3"}
{"CDR-L1": "EGDSLRYYYGN", "CDR-L2": "FKNNRPS", "CDR-L3": "SRRDSSGFQVF", "Kd": "no signal", "replicates with signal": "0 of 3"}
{"CDR-L1": "EGRSLRYYYAN", "CDR-L2": "GKNNRMS", "CDR-L3": "SPRDSSGFQVF", "Kd": "no signal", "replicates with signal": "0 of 3"}